Laboratory results reported in ChEMBL document CHEMBL1137702, “Identification of hydrolytically stable and selective P2Y(1) receptor agonists” (Eur J Med Chem, 2009).

By UniProt entry, the sequences of proteins in these tests, tags left out. Where a name states a change or a piece, a line headed by the entry shows the natural chain unless it says otherwise.
UniProt P49652: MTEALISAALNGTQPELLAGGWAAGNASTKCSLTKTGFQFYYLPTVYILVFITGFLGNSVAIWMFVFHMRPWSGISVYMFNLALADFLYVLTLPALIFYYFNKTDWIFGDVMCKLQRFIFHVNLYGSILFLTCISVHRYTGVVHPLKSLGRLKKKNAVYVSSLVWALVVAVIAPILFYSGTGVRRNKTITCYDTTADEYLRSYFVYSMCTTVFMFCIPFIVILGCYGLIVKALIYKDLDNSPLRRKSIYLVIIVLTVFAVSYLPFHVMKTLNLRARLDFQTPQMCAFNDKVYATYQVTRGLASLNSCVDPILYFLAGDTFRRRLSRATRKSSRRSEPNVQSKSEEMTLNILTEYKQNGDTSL

Molecular target: P2Y purinoceptor 1 (Meleagris gallopavo, UniProt P49652)
Assay: Agonist activity at turkey P2Y1 receptor expressed in human 1321N1 cells assessed as increase in intracellular calcium concentration by dual-excitation spectrofluorimetric analysis
Format: functional, cell-based
Method in brief: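 1321N1 astrocytoma cells stably expressing the receptor (turkey P2Y1, human P2Y2, human P2Y4, rat P2Y6) were grown with G-418 selection. Fura-2-loaded cell suspensions were exposed at 37 °C in 10 mM HEPES-buffered saline pH 7.4 with 1 mM CaCl2 and 1 mM MgCl2. Peak [Ca2+]i rise was measured over a range of concentrations to derive EC50.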

## CSc1nc(N)c2ncn([C@@H]3O[C@H](COP(=O)(O)OP(=O)(O)O)[C@@H](O)[C@H]3O)c2n1
  EC50: 4 nM
